This assay in a line: Antagonist activity at CCR2 in human THP-1 cells assessed as reduction in CCL2-induced chemotaxis.

On to `CC(=O)N[C@@H]1C[C@H](N(C)C(C)C)CC[C@@H]1N1CC[C@H](Nc2ncnc3ccc(C(F)(F)F)cc23)C1=O`, for which the half-inhibitory concentration (IC50) is 0.7 nM.
